Tested on: CAPS patient (NLRP3 mutation Arg260Trp)
Assay: Treatment of a CAPS patient (humans in vivo)
Set-up: species or system human
Settings: oral, twice daily, 3.3 mg/kg/dose for 7 days, one CAPS patient

**Q.** `CC(C)n1ccc(S(=O)(=O)NC(=O)Nc2c3c(cc4c2CCC4)CCC3)n1` [compound of formula (I)] was tested. Which tolerability of treatment did it give?
**A.** well tolerated

— US20220409585A1, “TREATMENT OF AUTOINFLAMMATORY DISORDERS” (Inflazome Limited, priority 2019, published 2022)
